Earlier results in PMC140124 (Biological Procedures Online, 1998).
Read-outs that look alike come from different tables or passages of the source.

Conditions: ref [1]

## Tyr-Gly-Gly-Phe-Leu
Absence of peptidase inhibitors
  appearance on the serosal side: did not appear on the serosal side
Presence of peptidase inhibitors
  appearance on the serosal side: did not appear on the serosal side
